Laboratory results: patent US20100113370A1, “METHODS AND COMPOUNDS FOR MODULATING INFLAMMATORY PROCESSES” (priority 2007, published 2010)

Protein sequences, listed by entry. Tags and fused reporters are not part of them. Lines headed by an entry give the natural chain unless they say otherwise; changes in a name come on top.
UniProt O15439: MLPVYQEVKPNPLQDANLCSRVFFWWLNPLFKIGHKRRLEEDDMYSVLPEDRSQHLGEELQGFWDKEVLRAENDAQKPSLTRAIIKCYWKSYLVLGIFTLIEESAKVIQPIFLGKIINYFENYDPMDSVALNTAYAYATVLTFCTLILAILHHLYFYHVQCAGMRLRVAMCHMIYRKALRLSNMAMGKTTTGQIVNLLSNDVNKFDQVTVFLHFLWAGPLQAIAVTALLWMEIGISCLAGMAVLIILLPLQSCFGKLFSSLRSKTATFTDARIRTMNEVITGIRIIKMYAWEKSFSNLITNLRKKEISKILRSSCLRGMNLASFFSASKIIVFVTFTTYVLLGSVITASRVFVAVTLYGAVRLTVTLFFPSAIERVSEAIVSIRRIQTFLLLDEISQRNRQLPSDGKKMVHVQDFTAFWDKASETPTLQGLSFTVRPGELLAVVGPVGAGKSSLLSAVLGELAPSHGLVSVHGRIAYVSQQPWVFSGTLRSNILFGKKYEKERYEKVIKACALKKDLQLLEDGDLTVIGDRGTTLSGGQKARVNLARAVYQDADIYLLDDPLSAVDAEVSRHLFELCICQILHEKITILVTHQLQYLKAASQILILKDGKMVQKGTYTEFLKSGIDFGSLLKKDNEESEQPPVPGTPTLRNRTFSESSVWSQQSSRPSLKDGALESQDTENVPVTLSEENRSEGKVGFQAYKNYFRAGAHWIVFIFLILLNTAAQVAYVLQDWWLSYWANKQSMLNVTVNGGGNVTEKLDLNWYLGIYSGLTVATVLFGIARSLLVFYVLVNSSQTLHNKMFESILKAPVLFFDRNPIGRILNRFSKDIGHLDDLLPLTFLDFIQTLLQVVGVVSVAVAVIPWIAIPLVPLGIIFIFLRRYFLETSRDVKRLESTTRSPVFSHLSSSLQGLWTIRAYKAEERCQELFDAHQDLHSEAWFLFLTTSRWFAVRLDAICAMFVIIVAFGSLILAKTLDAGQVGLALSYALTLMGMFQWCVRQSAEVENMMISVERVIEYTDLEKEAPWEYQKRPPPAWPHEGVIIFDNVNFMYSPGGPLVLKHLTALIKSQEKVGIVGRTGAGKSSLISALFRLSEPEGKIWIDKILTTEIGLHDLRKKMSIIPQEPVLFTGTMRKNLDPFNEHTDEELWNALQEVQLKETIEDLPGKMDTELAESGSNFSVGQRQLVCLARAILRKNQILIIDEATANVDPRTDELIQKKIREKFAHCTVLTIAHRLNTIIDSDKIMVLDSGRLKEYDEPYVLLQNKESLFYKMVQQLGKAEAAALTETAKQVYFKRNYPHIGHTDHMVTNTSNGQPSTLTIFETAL

Target: ABCC4 (Homo sapiens, UniProt O15439)

pKi: 5.01
Structure (SMILES): CN(C)C(=O)CCSC(SCCC(=O)O)c1cccc(/C=C/c2ccc3ccc(Cl)cc3n2)c1 (stereo not shown) [MK571]

pKi: −log10 of the molar value.
